Source: PubChem BioAssay AID1229 (Sanford-Burnham Center for Chemical Genomics, 2008)
Only a part is listed here, and it is no random draw. Some of these compounds have results that are not shown, active ones among them. Activity calls are given as the source filed them.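 How the source made its calls: active means diaphorase activity raised at least twofold by the compound at 20 µM; inactive means activation factor below 2.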

test: compounds boosting diaphorase resazurin reduction – biochemical, uHTS, resorufin fluorescence, counter-screen for diaphorase-coupled primary assays, primary screen (AID 1229); details: Diaphorase/resazurin coupled assay, 16 min, at 20 µM; hits give high values, 1 = vehicle wells, 0 = NADH-free wells
Summary of the method: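 Material: purified diaphorase enzyme from Clostridium kluyveri / Medium: HEPES pH 7.4 buffer with MgCl2 and Tween 20 / Schedule: enzyme reaction of 16 min at room temperature / Measured by: resorufin fluorescence, excitation 544 nm, emission 590 nm / Evaluation: rise in resorufin formation, marking diaphorase activation or chemical reduction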

| SMILES | activation factor |
| --- | --- |
| CN(C)c1cccc(C(=O)NCC2(N(C)C)CCCCC2)c1 | inactive: 0.8 |
| O=C(OC1CN2CCC1CC2)C(CO)(c1ccccc1)c1ccccc1 (centres undefined) | inactive |
| COc1cccc(C(=O)NCC2(N3CCCCC3)CCCCC2)c1 | inactive |
| C=CCN1CCN(CCOC(=O)C(O)(c2ccccc2)c2ccccc2)CC1 | inactive |
| CCN1CCCC(OC(=O)C2(O)c3ccccc3C=Cc3ccccc32)C1 (centres undefined) | inactive: 1 |
| Cc1ccccc1C(=O)NCC1(N2CCCCC2)CCCCC1 | inactive: 1 |
| CN(C)C1CCCC1OC(=O)C(O)(c1ccccc1)c1ccccc1 (centres undefined) | inactive: 1 |
| CC(C)N1C(=O)CC2(CCN(CCOC(=O)C(O)(c3ccccc3)c3ccccc3)CC2)C1=O | inactive: 1 |
| O=C(NCC1(N2CCCCC2)CCCCC1)c1cc([N+](=O)[O-])ccc1Cl | inactive: 1.1 |
